From ChEMBL document CHEMBL1268884, “Paraoxon, 4-nitrophenyl phosphate and acetate are substrates of α- but not of β-, γ- and ζ-carbonic anhydrases” (2010)

Sequences of proteins named here, by UniProt entry; tags and fusion partners are left off. A change or cut given only in a name is not applied to a line headed by its entry. Residues count along the entry.
UniProt P00915, 2-261 limits assumed: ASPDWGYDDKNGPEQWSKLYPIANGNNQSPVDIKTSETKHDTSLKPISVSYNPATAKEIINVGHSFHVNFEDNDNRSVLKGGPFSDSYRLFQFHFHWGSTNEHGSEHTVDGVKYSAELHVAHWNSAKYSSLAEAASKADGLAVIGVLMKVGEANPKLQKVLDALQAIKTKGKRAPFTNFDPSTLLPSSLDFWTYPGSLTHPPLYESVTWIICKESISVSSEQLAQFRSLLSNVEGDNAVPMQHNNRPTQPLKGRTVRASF
UniProt Q9D6N1: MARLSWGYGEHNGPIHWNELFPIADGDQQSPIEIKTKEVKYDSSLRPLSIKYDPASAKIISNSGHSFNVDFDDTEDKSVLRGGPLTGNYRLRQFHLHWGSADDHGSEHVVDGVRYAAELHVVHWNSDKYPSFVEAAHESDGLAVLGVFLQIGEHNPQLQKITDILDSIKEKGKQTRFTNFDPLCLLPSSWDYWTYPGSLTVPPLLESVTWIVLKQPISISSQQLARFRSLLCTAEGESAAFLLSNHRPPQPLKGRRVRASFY

Legend:
Carbonic anhydrase 1 = Carbonic anhydrase 1 (Homo sapiens, UniProt P00915); assay: Inhibition of esterase activity of human carbonic anhydrase 1 by CO2 hydration method
Carbonic anhydrase 13 = Carbonic anhydrase 13 (Mus musculus, UniProt Q9D6N1); assay: Inhibition of esterase activity of mouse carbonic anhydrase 13 by CO2 hydration method
Carbonic anhydrase 2 = Carbonic anhydrase 2 (Homo sapiens, UniProt P00918); assay: Inhibition of esterase activity of human carbonic anhydrase 2 by CO2 hydration method

O=[N+]([O-])c1ccc(OP(=O)(O)O)cc1
IC50 (Carbonic anhydrase 1): 330 nM | IC50 (Carbonic anhydrase 13): 1050 nM | IC50 (Carbonic anhydrase 2): 63 nM

CCOP(=O)(OCC)Oc1ccc([N+](=O)[O-])cc1
IC50 (Carbonic anhydrase 1): 338 nM | IC50 (Carbonic anhydrase 13): 1020 nM | IC50 (Carbonic anhydrase 2): 59 nM
